Experiment: Colour change in iron-fortified bouillon (CIELAB ΔEab*)
Assay type: physicochemical
Conditions: chicken bouillon containing curcumin, approx. 5.5 mg iron per 6.55 g powder, reconstituted in 250 mL boiling water, 60° C. min. 30 minutes; vs bouillon with no iron
Method: Commercial Maggi Chicken Bouillon (Nestle Nigeria) containing curcumin was iron fortified by the addition of iron (III) complexes from Example 1, as well as ferrous sulphate (Dr. P. Lohmann GmbH KG) Ref1, and […] (Dr. P. Lohmann GmbH KG) Ref2. The amounts were chosen to provide approximately 5.5 mg of iron per 6.55 g of bouillon powder. A further sample without iron fortification was also prepared in the same manner. All samples were reconstituted in 250 mL of boiling water and kept at 60° C. for a minimum of 30 minutes.
Colour measurements were performed in 2.6×1 cm quartz cuvettes using an XRite ColorEye 7000A colorimeter. The colorimeter was set up with a D65 light source, 10 degree observer angle, specular component included and Large area View (LAV). The colour difference between the beverage with no iron salt and the iron-fortified beverages was measured for each material and expressed as ΔEab* using the CIELAB colour scale (Table 2).

ferric pyrophosphate [Ref2]
Δ E: 6.1

Source: patent US11590163B2, “Iron-fortified food composition” (SOCIETE DES PRODUITS NESTLE S.A., priority 2017, dated 2023)
